# This is a sample that favours compounds with a hit; in the whole collection about 3.7% have one here.
# Nrf2 inh = inhibitors of Nrf2 signaling; A549 ARE-Fluc reporter, luciferase luminescence, 18-24 h; Potency, µM (top dose mostly 46 µM), inactives show at the top dose activity change, negative = inhibition, most hits filed as inhibitors; hit rate 2.1% among 360,000; further: potency means the concentration at half of the fitted maximal effect; on the % scale 0 is the no-effect control and ±100 the full control effect; nearly all actives have a fitted effect of over 60% in size
#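 Quantitative HTS in A549 cells stably bearing an antioxidant response element-firefly luciferase construct. Inhibition of Nrf2-driven transcription was scored by luminescence after 18-24 h of compound exposure at 37 °C.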
# IL2 activator = IL-2 activation. activation, % (series mostly up to about 46 µM). IL-2 activation reporter assay, cell-based qHTS; stimulated with anti-CD3/CD4/CD28 beads; in transgenic mouse T cells. hit rate 0.065% among 360,000; in the data active means activation above about 50%; inconclusive means mostly about 30% to 49%; further: 0% is about no effect
#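 EGFP and DsRed fluorescence is measured by plate cytometry in unstimulated transgenic mouse T cells exposed to compound for 60 minutes, then stimulated 18 hours at 37 degrees C with anti-CD3/anti-CD4 beads plus anti-CD28.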
# Nrf2 ARE act = activates Nrf2 signaling. AID 624171. hit rate 0.31% among 410,000. Potency, µM (highest dose often 46.1 µM), without a hit: top-dose activation, actives largely listed as activators. AREc32 ARE-luciferase reporter (MCF7-derived line), luminescence, 24 h; further: potency means the concentration at half of the fitted maximal effect; % of control where 0% means no effect; nearly all actives have a fitted effect of over 65% in size
#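 Each well held 1000 AREc32 cells, which were incubated with compound for 24 hr at 37 deg C after overnight attachment, and ARE reporter activity was quantified by firefly luciferase luminescence.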
# miR-21 reporter = miR-21 reporter, rising signal | AID 2288 | HeLa miR-21 FLuc reporter, luciferase, 48 h | 340,000 tested, under 10 active | Potency, µM (doses to about 38.3 µM), for inactives: at the top dose reporter change, positive = more light; active = well fitted rising curve with a large enough effect; inconclusive = small, poorly fitted or top-dose-only effect; inactive = no such curve, though single readings can be large or run the other way;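 note: % of control where 0% means no effect; miR-21 action dims this reporter so a rising signal means less miR-21 action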
#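 HeLa miR-21-FLuc reporter line, endogenous miR-21; 2000 cells/well in DMEM/10% FBS; compound titration up to ~40uM final, 48 h, 37 degree Celsius; luciferase detection reagent, 15 min lysis, CCD luminescence.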
# A549 viability = kills or reduces viability of A549 cells in Nrf2 counter-screen; A549 ARE-Fluc cells, CellTiter-Fluor viability, 18-24 h; Potency, µM (titrated, usually from 46 µM), for the others: at the top dose activity change, negative = cytotoxicity, usual class: inhibitors; hit rate 0.16% among 390,000; further: potency means the concentration at half of the fitted maximal effect; on the % scale 0 is the no-effect control and ±100 the full control effect
#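 A549 ARE-Fluc cells in 5% FBS OPTI-MEM, 5000 cells/well, rested 2 h then exposed to compounds in concentration-response for 18-24 h at 37 °C. Viability by CellTiter-Fluor fluorescence (Ex 405/Em 525) after 30 min; luciferase luminescence (BugLite, 15 min, RT) read afterwards.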
# ClpP mod = qHTS Assay for Activators of ClpP; ATP-dependent Clp protease proteolytic subunit (Bacillus subtilis (strain 168)), P80244; Potency, µM (series often up to 57.5 µM), inactives show at the highest dose activity change, negative = active; purified B. subtilis ClpP, FRET peptide cleavage, 20 min; AID 651965, 2013; hit rate 1.9% among 340,000; active means well fitted falling curve with a large enough effect; inconclusive means small, poorly fitted or top-dose-only effect; inactive means no such curve, though single readings can be large or run the other way; further: potency means the concentration at half of the fitted maximal effect; the source files actives as falling curves though it sought activators and does not explain the sign; nearly all actives have a fitted effect of over 65% in size
#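 ClpP 10 microg/mL final, pH 8 Tris/KCl buffer with BSA, glycerol, Tween-20; compound pinned in; FRET-FV substrate; RT 20 min; Ex320/Em430; ΔFRET vs ADEP 5.8 microM, DMSO, no enzyme.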
# Starred values were filed as active, the others as inactive; ? = inconclusive; . = not tested or not shown. Unless noted, the call rests on the fitted dose curve; in most records, active means well fitted curve in the direction sought with a large enough effect; inconclusive means small, poorly fitted or top-dose-only effect, or another doubt; inactive means no such curve, though single readings can be large; an effect the other way counts as inactive or inconclusive.
SMILES,Nrf2 inh,IL2 activator,Nrf2 ARE act,miR-21 reporter,A549 viability,ClpP mod
Cc1cccc(CC(=O)Nc2cccc(-c3nc4cccnc4s3)c2)c1,?,.,1%,-6%,8%,20µM*
CN(C)c1ccc(/C=C/c2cnnc3ccccc23)cc1,.,.,.,.,.,-1%
CC(=O)NS(=O)(=O)c1ccc(NC(=S)NC(=O)c2ccco2)cc1,4%,-2,-1%,-2%,-5%,3%
O=C(Nc1ccccc1C(=O)O)/C(=C/c1ccc(Cl)cc1Cl)NC(=O)c1ccco1,8%,-3,0%,1%,4%,35µM*
O=C(NC(=S)Nc1cc(Cl)ccc1Cl)c1ccco1,.,-2,11µM*,.,.,0%
NS(=O)(=O)c1ccc(NC(=S)NC(=O)c2ccco2)cc1,0%,0,10%,-13%,1%,10µM*
COc1ccc(Cl)cc1NC(=S)NC(=O)c1ccco1,17%,0,10µM*,.,2%,2%
Cc1ccc2sc(N3CCN(C(=O)C4COc5ccccc5O4)CC3)nc2c1C (centres undefined),.,.,0%,-4%,20%,-1%
CSc1ccc(/C=C2\C=C(C(O)c3ccc(SC)cc3)c3ccccc32)cc1 (centres undefined),.,.,.,.,.,0%
CCOc1ccccc1Oc1nc(C)nc2c1oc1ccccc12,.,.,5%,?,?,0%
Cc1cccc(NC(=S)NC(=O)c2ccco2)c1C,8%,0,9%,-42%,2%,-1%
O=C(NC(=S)Nc1ccccc1Br)c1ccco1,?,0,14µM*,-52%,8%,.
CCCCOc1cccc(C(=O)Nc2cc(NC(=O)c3ccco3)ccc2OC)c1,23µM*,.,4%,28%,-11%,-19%
Cc1cc(O)c(NC(=O)c2ccco2)cc1C,?,-1,13µM*,-44%,4%,0%
O=C(NC(=S)Nc1cccc(NC(=S)NC(=O)c2ccco2)n1)c1ccco1,24%,1,6.3µM*,-6%,7%,.
Cc1ccc(O)c(NC(=O)c2ccco2)c1,?,0,?,-37%,8%,-2%
O=C(NC1CC(=O)N(c2ccc(Cl)cc2)C1)c1ccc2c(c1)OCO2 (centres undefined),.,.,0%,1%,-16%,-1%
Cc1ccc(NC(=O)CN2C(=O)CSc3ccc(S(=O)(=O)N4CCCC4)cc32)cc1F,?,.,4%,19%,-1%,1%
O=S(=O)(NCCc1csc2nc(-c3ccc(Cl)cc3)nn12)c1ccc(Oc2ccccc2)cc1,.,.,1%,0%,-23%,3%
COc1ccc(NC(=O)c2ccco2)cc1NC(=O)c1ccco1,13%,0,3%,-8%,-10%,1%
CCCCC(=O)NC(=S)Nc1cccc(NC(=O)c2ccco2)c1,7%,-2,10%,-4%,-1%,25µM*
O=C(CNC(=O)c1ccco1)Nc1cc(Cl)ccc1N1CCOCC1,0%,0,2%,-10%,11%,28µM*
COc1cc(OC)cc(C(=O)Nc2ccc(NC(=O)c3ccco3)c(Cl)c2)c1,26µM*,0,0%,-27%,?,-1%
CCC(=O)NC(=S)Nc1ccc(NC(=O)c2ccco2)cc1,15%,0,4%,-30%,2%,.
COc1ccc(NC(=O)c2ccco2)cc1NC(=O)C(C)(C)Oc1ccc(Cl)cc1,21µM*,.,10%,3%,-23%,-4%
COc1cc2c(cc1OC)C(COc1ccccc1OC)N(C(=O)c1ccc(S(=O)(=O)N3CCCC3)cc1)CC2 (centres undefined),.,.,3%,8%,-3%,-4%
O=C(Nc1cc(Cl)ccc1Cl)c1ccco1,3%,2,13µM*,-5%,7%,-2%
Nc1ccc(NC(=O)c2ccco2)c(Cl)c1,20%,1,0%,-25%,8%,.

# Record cards (already shown). Order of values: Nrf2 inh | IL2 activator | Nrf2 ARE act | miR-21 reporter | A549 viability | ClpP mod
# CSc1ccc(/C=C2\C=C(C(O)c3ccc(SC)cc3)c3ccccc32)cc1 (centres undefined) across the screens: . | . | . | . | . | 0%
# Cc1ccc2sc(N3CCN(C(=O)C4COc5ccccc5O4)CC3)nc2c1C (centres undefined) across the screens: . | . | 0% | -4% | 20% | -1%
# NS(=O)(=O)c1ccc(NC(=S)NC(=O)c2ccco2)cc1 across the screens: 0% | 0 | 10% | -13% | 1% | 10µM*
# O=C(Nc1cc(Cl)ccc1Cl)c1ccco1 across the screens: 3% | 2 | 13µM* | -5% | 7% | -2%
# Cc1cccc(CC(=O)Nc2cccc(-c3nc4cccnc4s3)c2)c1 across the screens: ? | . | 1% | -6% | 8% | 20µM*

# High-throughput results from PubChem.
